We go through 1 compound from patent publication US11324714B2 (priority 2008, dated 2022).

One may read the IC50 as the concentration that gives 50% inhibition.

In data set [1] the test system is human acute myelocytic leukemia (AML) cell lines. As to the kind of experiment: 72 hour MTS assay. (Tetrazolium dyes change colour on reduction, which living cells bring about.)
Another data set has as its system cell cycle progression. As to the kind of experiment: cell cycle progression. The following applies: FIG. 33.
Data set [2] relates to healthy donor peripheral blood mononuclear cells. The data set is described as follows: long-term colony forming assay, toxicity to normal cells. Conditions: healthy donor PBMC, long-term colony forming assay (FIG. 34).
Data set [3] has as its system CD11b maturation marker on the surface of cells. The data set is described as follows: cell differentiation/maturation (CD11b maturation marker). Conditions: low doses; marginal compared with ATO (FIG. 32).
Data set [4] deals with human leukemia cell lines and leukemic cells obtained from patients with acute or chronic leukemia. As to the kind of experiment: long-term (7 day) colony-forming assay in semi-solid medium. The following applies: 7 day colony-forming assay (FIG. 27B).
Data set [5] has as its system leukemic cells. As to the kind of experiment: modulation of GSH redox system (BSO, DTT, NAC pretreatment).
The subject of data set [6] is leukemic cells. The data set is described as follows: induction of apoptosis (mitochondrial membrane potential, caspase cleavage, PARP, annexin V).

For the compound `CCC[As](CCC)SCC(O)CO` (centres unmarked), the IC50 in data set [1] (different human AML cell lines) was in the range of 560 to 860 nM. In addition, the “activity compared with arsenic trioxide” value in data set [1] (human AML cell lines (FIG. 27A)) is reported as “higher than the activity of arsenic trioxide”. Moreover, the “effect on cell cycle progression” value in the data set with cell cycle progression was “no effect”. In addition, in data set [2], the “toxicity to normal cells compared with ATO” value is given as “less toxic to normal cells than ATO”. For the same compound, the “cell differentiation/maturation (CD11b induction)” value in data set [3] was “partially induce cell differentiation/maturation”. The “anti-leukemic activity compared with arsenic trioxide” value in data set [4] was “significantly higher activity than arsenic trioxide”. Besides, in the data set with leukemic cells [5] (BSO pretreatment (FIG. 30)), the “sensitivity of leukemic cells to compound after pretreatment with buthionine sulfoximine (BSO)” value was “more sensitive”. The “sensitivity of leukemic cells to compound after pretreatment with DTT or NAC” value in the data set with leukemic cells [5] (DTT or NAC pretreatment (FIG. 30)) is on record as “less sensitive”. Moreover, in the data set on leukemic cells [5] (compared with ATO (FIG. 31)), the “modulation of GSH redox system” value was “earlier and to a greater extent than ATO”. Also, the “induction of apoptosis compared with ATO” value with leukemic cells [6] (FIGS. 28 and 29) is “more potent in induction of apoptosis than ATO”. For the same compound, in the data set on leukemic cells [6] (mitochondrial membrane potential, caspase 9 cleavage), the apoptotic pathway activation entry was “activated the mitochondrial apoptotic pathway”.
